Counter-ions that a name gives are not always drawn. Like-named read-outs stand apart in the source and are kept apart here.
Columns and labels:
male Swiss Webster mice = assay: warm-water tail immersion assay, antagonism of morphine's antinociception; conditions: mouse, in vivo
MOR = MOR (Mus musculus, UniProt P42866); assay: MOR [35S]GTPγS functional assay (MOR-CHO membranes); assay type: biochemical; parameters: expressed in transfected cells; host or cells: CHO; conditions: read-out: MOR [35S]GTPγS Binding % Emax of DAMGO, Example 1 compounds; relative to 3 μM DAMGO
DOR [1] = target: T1, DOR (Homo sapiens, UniProt P41143); assay: competitive radioligand binding assay, DOR ([3H]diprenorphine, CHO cell membranes)
T1 construct: expressed in transfected cells; host or cells: CHO

KOR [2] = target: T2, KOR (Mus musculus, UniProt P33534); assay: competitive radioligand binding assay, KOR ([3H]diprenorphine, CHO cell membranes); parameters: expressed in transfected cells; host or cells: CHO
KOR [3] = target: T2, KOR; assay: KOR [35S]GTPγS binding assay; assay type: biochemical; parameters: expressed in transfected cells; host or cells: CHO
DOR [4] = target: T1, DOR; assay: DOR [35S]GTPγS binding assay; assay type: biochemical
Caco-2 permeability = conditions: human, Caco-2, pH 7.4
[5] = Example 1 compounds, ratio of Ki

SMILES: O=C(N[C@@H]1CC[C@@]2(O)[C@H]3Cc4ccc(O)c5c4[C@@]2(CCN3CC2CC2)[C@H]1O5)c1ccsc1 [Example 1 compound 32, 17-Cyclopropylmethyl-3,14β-dihydroxy-4,5α-epoxy-6β-(3′-thienylcarboxamido)morphinan hydrochloride]
- AD50 mg/kg (95% CL) to antagonize morphine mediated antinociception (male Swiss Webster mice): 6.81 mg/kg

SMILES: O=C(N[C@H]1CC[C@@]2(O)[C@H]3Cc4ccc(O)c5c4[C@@]2(CCN3CC2CC2)[C@H]1O5)c1cccs1 [Example 1 compound 25, 17-Cyclopropylmethyl-3,14β-dihydroxy-4,5α-epoxy-6α-(2′-thienylcarboxamido)morphinan hydrochloride]
- Emax (MOR): 20 to 30%

SMILES: O=C(Cc1ccsc1)N[C@@H]1CC[C@@]2(O)[C@H]3Cc4ccc(O)c5c4[C@@]2(CCN3CC2CC2)[C@H]1O5 [Example 1 compound 34, 17-Cyclopropylmethyl-3,14β-dihydroxy-4,5α-epoxy-6β-(3′-thienylacetamido)morphinan hydrochloride]
- Selectivity δ/μ (DOR [1]): 176
- Selectivity κ/μ (KOR [2]): 6

SMILES: O=C(CCc1cccs1)N[C@H]1CC[C@@]2(O)[C@H]3Cc4ccc(O)c5c4[C@@]2(CCN3CC2CC2)[C@H]1O5 [Example 1 compound 29, 17-Cyclopropylmethyl-3,14β-dihydroxy-4,5α-epoxy-6α-[3′-(thiophen-2″yl)propanamido]morphinan hydrochloride]
- Emax (MOR): 30 to 50%
- Selectivity δ/μ (DOR [1]; [5]): 7
- Selectivity κ/μ (KOR [2]; [5]): 4

SMILES: O=C(N[C@H]1CCC2(O)C3Cc4ccc(O)c5c4[C@@]2(CCN3CC2CC2)[C@H]1O5)c1ccc[nH]1 (stereo partly drawn) [Example 1 compound 1, 17-Cyclopropylmethyl-3,14β-dihydroxy-4,5α-epoxy-6a-[(2′-pyrrolyl)carboxamido]morphinan hydrochloride]
- EC50 (KOR [3]): 14.8 ± 0.99 nM
- EC50 (DOR [4]): 26.9 ± 3.23 nM
- AMES testing (AMES testing): No toxicity shown

SMILES: O=C(N[C@@H]1CC[C@@]2(O)[C@H]3Cc4ccc(O)c5c4[C@@]2(CCN3CC2CC2)[C@H]1O5)c1cccs1 [Example 1 compound 26, 17-Cyclopropylmethyl-3,14β-dihydroxy-4,5α-epoxy-6β-(2′-thienylcarboxamido)morphinan hydrochloride]
- AD50 mg/kg (95% CL) to antagonize morphine mediated antinociception (male Swiss Webster mice): 1.62 mg/kg

SMILES: O=C(Cc1ccsc1)N[C@H]1CC[C@@]2(O)[C@H]3Cc4ccc(O)c5c4[C@@]2(CCN3CC2CC2)[C@H]1O5 [Example 1 compound 33, 17-Cyclopropylmethyl-3,14β-dihydroxy-4,5α-epoxy-6α-(3′-thienylacetamido)morphinan hydrochloride]
- Emax (MOR): 20 to 30%
- Selectivity δ/μ (DOR [1]; [5]): 173
- Selectivity κ/μ (KOR [2]; [5]): 3

SMILES: O=C(N[C@H]1CC[C@@]2(O)[C@H]3Cc4ccc(O)c5c4[C@@]2(CCN3CC2CC2)[C@H]1O5)c1ccsc1 [Example 1 compound 31, 17-Cyclopropylmethyl-3,14β-dihydroxy-4,5α-epoxy-6α-(3′-thienylcarboxamido)morphinan hydrochloride]
- Emax (MOR): 30 to 50%
- efflux ratio at 1 h, 10 μM (Caco-2 permeability): 4
- Tail flick assay (dose response) AD50 (male Swiss Webster mice): The AD50 of NAH was determined as 1.51 (1.08- mg/kg

— US20250195504A1, “NALTREXAMINE DERIVATIVES BEARING 5-MEMBER HETEROCYCLIC RING SYSTEMS AND OPIOID RECEPTOR MODULATORS” (VIRGINIA COMMONWEALTH UNIVERSITY, priority 2022, published 2025)
